Measurements: PubChem BioAssay AID902 (National Center for Advancing Translational Sciences (NCATS), 2007)
The list shows a part of the results, in another mix than the full data. Results filed as inconclusive are left out. Entries that show only a call come without a potency. The source made the active and inactive calls. The call rests on the fitted dose curve; in most records, active means well fitted cell-killing curve with a large enough effect; inconclusive means small, poorly fitted or top-dose-only effect; inactive means no such curve, though single readings can be large or run the other way.
Potency means the concentration at half of the fitted maximal effect.

Experiment: qHTS Screen for Compounds that Selectively Target Cancer Cells with p53 Mutations: Cytotoxicity of p53ts Cells at the Nonpermissive Temperature; further: nearly all actives have a fitted effect of over 55% in size
Details: H1299-p53A138V viability at 39C, ATP luminescence, 24 h; series mostly up to 9.22 µM
For COc1ccc2cc1Oc1ccc(cc1)CC1c3cc(c(OC)cc3CCN1C)Oc1c(OC)c(OC)cc3c1C(C2)N(C)CC3 (stereo not drawn), the Potency was “inactive”.
With COc1ccc2cc1Oc1ccc(cc1)C[C@H]1c3cc(c(OC)cc3CCN1C)Oc1c(OC)c(OC)cc3c1[C@@H](C2)N(C)CC3 the Potency was “inactive”.
With COc1ccc2cc1Oc1ccc(cc1)C[C@H]1c3cc(c(OC)cc3CCN1C)Oc1c(OC)c(OC)cc3c1[C@H](C2)N(C)CC3 the Potency was active: 31.6 µM.
